Data taken from patent publication US9938267B2, “Heterocyclic inhibitors of glutaminase” (Calithera Biosciences, Inc., priority 2011, dated 2018).

The chains behind the UniProt entries cited, without tags or fusion partners. Residues count along the entry.
UniProt O94925, 55-669 limits assumed: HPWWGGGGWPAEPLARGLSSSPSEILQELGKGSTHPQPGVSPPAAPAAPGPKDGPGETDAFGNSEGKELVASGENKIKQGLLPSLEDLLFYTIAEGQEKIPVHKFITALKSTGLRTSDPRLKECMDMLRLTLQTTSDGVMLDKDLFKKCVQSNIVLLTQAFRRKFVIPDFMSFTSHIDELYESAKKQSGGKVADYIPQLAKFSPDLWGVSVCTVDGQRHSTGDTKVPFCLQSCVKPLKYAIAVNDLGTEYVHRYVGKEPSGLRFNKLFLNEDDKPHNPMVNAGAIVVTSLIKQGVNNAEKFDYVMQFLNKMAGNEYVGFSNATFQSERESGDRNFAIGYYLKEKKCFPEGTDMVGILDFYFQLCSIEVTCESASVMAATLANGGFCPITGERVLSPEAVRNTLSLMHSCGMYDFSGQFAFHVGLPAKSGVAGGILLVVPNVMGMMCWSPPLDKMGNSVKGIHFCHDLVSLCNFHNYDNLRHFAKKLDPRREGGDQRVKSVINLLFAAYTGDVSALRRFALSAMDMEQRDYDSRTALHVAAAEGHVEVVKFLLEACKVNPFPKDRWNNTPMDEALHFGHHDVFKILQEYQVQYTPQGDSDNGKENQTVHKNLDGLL

Target: recombinant form of Glutaminase 1 (GAC) (Homo sapiens, UniProt O94925)
Assay: Recombinant enzyme assay (GAC, GDH-coupled absorbance, no preincubation)
Assay type: biochemical
Details: read-out: GAC Delta N2 IC50 no preinc
Method: Enzymatic reaction was started with the addition of 50 μL of enzyme solution (50 mM Tris-HCl pH 8.0, 0.2 mM EDTA, 150 mM K2HPO4, 0.1 mg/ml BSA, 1 mM DTT, 10 ppm antifoam, 4 units/ml GDH, 4 mM adenosine diphosphate, and 4 nM GAC) and read in a Molecular Devices M5 plate reader at 20° C. The plate reader was configured to read absorbance (λ=340 nm) in kinetic mode for 15 minutes. Data was recorded as milli-absorbance units per minute and slopes were compared to a control compound and a DMSO-only control on the same plate. Compounds with slopes less than the DMSO control were considered inhibitors and plate variability was assessed using the control compound.

| Compound | IC50 [nM] |
| --- | --- |
| O=C(C[C@@H](O)c1ccccc1)Nc1nnc(CCSCCc2nnc(NC(=O)C[C@@H](O)C3CCCCC3)s2)s1 [Compound 126] | 5800 |
| O=C(Cc1cccc(OCCO)c1)Nc1nnc(CCSCCc2nnc(NC(=O)Cc3cccc(OCCO)c3)s2)s1 [Compound 236] | 200 |
